Test results taken from patent US20020151526A1, “Bile-acid prodrugs of L-dopa and their use in the sustained treatment of parkinsonism” (priority 2000, published 2002).
Like-named read-outs stand apart in the source and are kept apart here.

What was measured:
[1] = Human Liver S9 (0.5 mg/mL); substrate 2.0 μM; NADPH; 37° C.
[2] = Rat Liver S9 (0.5 mg/mL); substrate 2.0 μM; NADPH; 37° C.
[3] = Human Intestine S9 (0.5 mg/mL); substrate 2.0 μM; NADPH; 37° C.
[4] = Human Plasma; substrate 2.0 μM; no cofactors; 37° C.
[5] = Rat Plasma; substrate 2.0 μM; no cofactors; 37° C.

Cholyl-DOPA-(4-pivaloyloxymethyl) [(102)]
Percent of (101) Released in 60 min [1]: 70%
Percent of (101) Released in 60 min [2]: 35%
Percent of (101) Released in 60 min [3]: 95%
Percent of (101) Released in 60 min [4]: 90%
Percent of (101) Released in 60 min [5]: 75%
